Test results published in US9982028B2, “Recombinant human interferon-like proteins” (Novagen Holding Corporation, priority 2007, dated 2018).

Assays:
[1] = system: Vesicular Stomatitis Virus (VSV) on WISH cells; format: cell-based; conditions: against VSV on WISH; units with reference to WHO international standards 94/786 and 95/650
[2] = system: human prostate cancer PC-3 xenografts; assay: Human prostate cancer xenograft model; format: in vivo, athymic nude Balb/c mice; conditions: PC-3 xenograft; for Inhibition rate / Tumor weight (mean ± SD): 30 days; for Tumor weight (mean ± SD): n = 10
Protocol: Colon cancer cell line (LS 180), melanoma cell line (A-375) and liver cancer cell line (Hep G2) were obtained from the American Type Culture Collection (ATCC, Rockville, Md.). Prostate cancer cell line (PC-3) was obtained from German National Resource Centre for Biological Material (DSMZ, Deutsche […] von Mikroorganismen and Zellkulturen, Germany). Lymphocytic cell line (HL 60(s) was purchased from Japanese Collection of Research Bioresources Cell Bank (JCRB, Japan). All cells were cultured according to their instructions (see Table 1). Briefly, LS 180 and Hep G2 were cultured in MEM medium. A-375 was cultured in DMEM. Both media were supplemented with 10% fetal bovine serum (FBS), 2 mM […] U/ml of penicillin, […] of streptomycin, 0.1 mM non-essential amino acids, and 1.0 mM sodium pyruvate. PC-3 and HL 60 (S) cells were cultured in RPMI 1640, supplemented with 10% FBS, 100 U/ml of penicillin, and […] of streptomycin. All cells were maintained in 5% CO2 atmosphere at 37° C. Human cancer xenograft models were established using the methods described by Beverly et al (118). […] For the treatment of 5-FU, 30 mg/kg of 5-FU was i.v. administrated once every two days for a total of 5 times. The groups and treatment doses are summarized below: Once treatment commenced, tumors were measured with a caliper once a week. […] Mice were sacrificed at the day of treatment discontinuation (day 30 after commencement of the treatment). Solid tumors were isolated, photographed, and measured. […] C is the average tumor weight in control group after treatment.

[3] = system: human liver cancer Hep G2 xenografts; assay: Human liver cancer xenograft model; format: in vivo, athymic nude Balb/c mice; conditions: 30 days; for Tumor weight (mean ± SD): n = 10
[4] = system: human melanoma A-375 xenografts; assay: Human melanoma xenograft model; format: in vivo, athymic nude Balb/c mice; conditions: A-375 xenograft; for Tumor weight (X ± SD): 30 days (28 days in the source), n = 10
[5] = system: human colon cancer LS 180 xenografts; assay: Human colon cancer xenograft model; format: in vivo, athymic nude Balb/c mice; conditions: LS 180 xenograft, 28 days; for Tumor weight (X ± SD): n = 10
[6] = system: human leukemia HL 60(s) xenografts; assay: Human leukemia xenograft model; format: in vivo, athymic nude Balb/c mice; conditions: HL 60(s) xenograft, 21 days; for Tumor weight (X ± SD): n = 10
[7] = General condition of the mice during treatment; format: in vivo; conditions: mice with human cancer xenografts, during the treatment period

HuIFN-α2b: recombinant human interferon alpha 2b (GeneBank NM_000605) expressed and purified in E. coli; the most-widely used human interferon product [reference compound]
anti-viral activity [1]: 2.0×10^8 IU/mg
Inhibition rate ([2]; 1.25 μg/kg daily s.c.): 34.1%
Tumor weight (mean ± SD) ([2]; 1.25 μg/kg daily s.c.): 1.284 ± 0.862 g
Inhibition rate ([2]; 12.5 μg/kg daily s.c.): 59.4%
Tumor weight (mean ± SD) ([2]; 12.5 μg/kg daily s.c.): 0.790 ± 0.391 g
Inhibition rate ([2]; 125 μg/kg daily s.c.): 75.6%
Tumor weight (mean ± SD) ([2]; 125 μg/kg daily s.c.): 0.476 ± 0.271 g
average volume of tumor mass ([2]; 125 μg/kg daily s.c., day 28): 620.7±296.6 mm^3
average volume of tumor mass ([2]; 125 μg/kg daily s.c., day 30): 691.9±428.3 mm^3
Inhibition rate ([3]; 1.25 μg/kg daily s.c.): 50.9%
Tumor weight (mean ± SD) ([3]; 1.25 μg/kg daily s.c.): 1.070 ± 0.587 g
Inhibition rate ([3]; 12.5 μg/kg daily s.c.): 75.6%
Tumor weight (mean ± SD) ([3]; 12.5 μg/kg daily s.c.): 0.531 ± 0.287 g
Inhibition rate ([3]; 125 μg/kg daily s.c.): 89.2%
Tumor weight (mean ± SD) ([3]; 125 μg/kg daily s.c.): 0.235 ± 0.199 g
Inhibition rate ([4]; 1.25 μg/kg daily s.c.): 38.2%
Tumor weight (X ± SD) ([4]; 1.25 μg/kg daily s.c.): 1.890 ± 0.148 g
Inhibition rate ([4]; 12.5 μg/kg daily s.c.): 45.0%
Tumor weight (X ± SD) ([4]; 12.5 μg/kg daily s.c.): 1.681 ± 0.132 g
Inhibition rate ([4]; 125 μg/kg daily s.c.): 69.9%
Tumor weight (X ± SD) ([4]; 125 μg/kg daily s.c.): 0.920 ± 0.139 g
Inhibition rate ([5]; 1.25 μg/kg daily s.c.): 70.6%
Tumor weight (X ± SD) ([5]; 1.25 μg/kg daily s.c.): 1.225 ± 0.565 g
Inhibition rate ([5]; 12.5 μg/kg daily s.c.): 74.2%
Tumor weight (X ± SD) ([5]; 12.5 μg/kg daily s.c.): 1.076 ± 0.442 g
Inhibition rate ([5]; 125 μg/kg daily s.c.): 82.3%
Tumor weight (X ± SD) ([5]; 125 μg/kg daily s.c.): 0.740 ± 0.310 g
Inhibition rate ([6]; 1.25 μg/kg daily s.c.): 35.5%
Tumor weight (X ± SD) ([6]; 1.25 μg/kg daily s.c.): 2.401 ± 0.698 g
Inhibition rate ([6]; 12.5 μg/kg daily s.c.): 49.8%
Tumor weight (X ± SD) ([6]; 12.5 μg/kg daily s.c.): 1.870 ± 0.660 g
Inhibition rate ([6]; 125 μg/kg daily s.c.): 69.8%
Tumor weight (X ± SD) ([6]; 125 μg/kg daily s.c.): 1.124 ± 0.397 g
general condition of treated mice (eating, behavior, weight loss) [7]: generally ate and behaved normally, and had no weight loss
